System: human liver microsomes (HLMs)
Assay: Low-dose (LC-MS/MS) metabolism / intrinsic clearance in human liver microsomes
Conditions: for Decay Type (metabolism type): one column for both regimens, BPD = biphasic in MS and/or NMR; for % Remaining (data based on MS): percent of OP remaining after incubation, low-dose regimen

Substance | Decay Type (metabolism type) | % Remaining (data based on MS) [%]
Chlorpyrifos Oxon | OPD | –
Fenthion Oxon | OPD | 90.00
Paraoxon-ethyl | OPD | –
Paraoxon-methyl | – | 68.00
